Measured values published in US20130171163A1 (published 2013).

Biological target: T1, leukocyte antigen-related protein tyrosine phosphatase (LAR) (human, UniProt P10586)
T1 construct: Endogenous protein in HUVEC lysates; The background section describes LAR as a non-covalent complex of a 150-kDa E subunit and an 85-kDa P subunit, cleaved from a 200-kDa proprotein; In the functional assays, full-length human LAR was overexpressed from adenovirus (AdLAR) or knocked down with siRNA; also called LAR PTP; leukocyte antigen-related (LAR) PTP
Test: co-immunoprecipitation from HUVEC lysates with anti-cLAR antibody, Western blot with anti-VEGFR2
Description: C, Lysates from HUVECs stimulated with or without VEGF (20 ng/ml) for 10 min were immunoprecipitated with polyclonal antibodies against anti-cLAR or control goat IgG, followed by immunoblotting with anti-VEGFR2 (top), VEGFR3 (middle) or anti-cLAR antibody (bottom). D, Equal amounts of GST or GST-cLAR fusion protein were immobilized on glutathione-Sepharose beads and then incubated with HUVEC lysates containing equal amount of protein. GST or GST-cLAR-associated proteins were analyzed by Western blotting using anti-IGF-1Rβ antibody. The same membrane was reprobed with anti-GST antibody (E), anti-VEGFR2 (F, top) or anti-VEGFR3 (F, bottom) antibodies.

- binding result: no binding
B1: VEGFR2 (receptor)
chain: not shown
notes: Endogenous protein in HUVEC lysates, with or without VEGF treatment (20 ng/ml, 10 min)
